Key:
[1] = target: porcine trypsin (porcine) (UniProt P00761); test: chromogenic (S-2251) amidolytic inhibition assay, trypsin 50 nM
human plasmin (human) = human plasmin (human) (UniProt P00747); test: chromogenic (S-2251) amidolytic inhibition assay, plasmin 30 nM

Substance | Ki [1] [nM] | Ki (human plasmin (human)) [nM]
bovine pancreatic trypsin inhibitor (BPTI) (from UniProt P00974 36-93) | 5 | 
bovine pancreatic trypsin inhibitor (BPTI) (from UniProt P00974 36-93) (other; other documents disagree on this pair) |  | 0.75

Reference: patent US20090099087A1 (STC UNM, published 2009)
